What was measured:
[1] = Carr Index (USP 1174), flowability; type: physicochemical
[2] = Water solubility at 25° C.

Substance	Carr Index [1]	water solubility [2]
clozapine:enriched tannic acid 4:1 salt	19%	
clozapine:enriched tannic acid 2:1 salt	33%	
olanzapine:pantothenic acid 5:1 salt		128 mg/mL
